# Measurements: patent publication US20260265408A1, “GD2-SPECIFIC CHIMERIC ANTIGEN RECEPTOR EFFECTOR CELLS FOR USE IN THE TREATMENT OF SOLID TUMORS, POSSIBLY IN COMBINATION WITH ENHANCER OF ZESTE HOMOLOG 2 (EZH2) INHIBITORS” (priority 2023, published 2026)
# Test system: DAOY (SHH subgroup) MB cell line
# Assay: GD2 expression by flow cytometry after EZH2 inhibitor, DAOY
# Format: cell-based, human
# Conditions: 1-10 µM of Tazemetostat for seven days
compound,measurement,setting,value
CCN(c1cc(-c2ccc(CN3CCOCC3)cc2)cc(C(=O)NCc2c(C)cc(C)[nH]c2=O)c1C)C1CCOCC1 [Tazemetostat],GD2 expression in percentage,from 33.3%,77.2%
same,GD2 Median Fluorescence Intensity (MFI),from 5416,8995
